# Reference: patent US8741929B2, “Methods using 3-(4-amino-1-oxo-1,3-dihydro-isoindol-2-yl)-piperidine-2,6-dione for treatment of mantle cell lymphomas” (Celgene Corporation, priority 2006, dated 2014)
# Test system: relapsed or refractory mantle cell lymphoma (MCL)
# Conditions: first cycle
structure (smiles),measurement,setting,value
"Nc1cccc2c1CN(C1CCC(=O)NC1=O)C2=O (centres unmarked) [Revlimid®, 3-(4-amino-1-oxo-1,3-dihydro-isoindol-2-yl)-piperidine-2,6-dione]",grade 3 or 4 toxicities during the cycle,+ rituximab,no grade 3 or 4 toxicities
same,Dose-limiting toxicity (DLT): grade 3 or 4 non-hematologic or grade 4 hematologic toxicity,"Revlimid up to 20 mg orally daily for 21 of 28 days + rituximab 375 mg/m^2 iv weekly, seven evaluable patients",No DLT was encountered
